Assay results: US6407058B1, “Modifying the permeability of physiological barriers” (Eisai Co., Limited, priority 1996, dated 2002)

Tested on: p100/p120
Test: p100/p120 electrophoretic mobility, primary pig brain endothelial cells (PBECs)
Assay type: cell-based
Details: for mobility of p100/p120: 10 minutes
Experimental: The mobility of p100 and p120 during electrophoresis is also altered by PDB-treatment in endothelial cells. The p100/p120 proteins from human umbilical vein endothelial cells (HUVECs), bovine aortic endothelial cells (BAECs) and primary pig brain endothelial cells (PBECs) were all affected by PDB-treatment. Cells were treated with or without 200 nM PDB for 30 minutes, lysed into Laemmli sample buffer, separated by electrophoresis and analysed by immunoblotting with antibodies recognising p100 and p120. […] Thus the effect of PKC activation (via PDB) on p100/p120 mobility is a widespread phenomenon.
Brain endothelial cells from pig were incubated with or without lysophosphatidic acid (LPA; 10 μM for 30 minutes). The cells were extracted and protein analyzed by gel electrophoresis and immunblotting. Each lane represents protein extracted from an individual Transwell.
MDCK strain I and II cells were provided by Barry Gumbiner (memorial Sloan-Kettering Cancer Center, NY). LLC-PK1 and Caco-2 cells were obtained from the European Collection of Animal Cell Cultures. All cells were maintained at 37° C. under 5% CO2 in humidified air. MDCK strain I and II cells were maintained in MEM containing 10% FCS, 100 U/ml penicillin, 100 μg/ml streptomycin and 2 mM L-glutamine. Caco-2 cells were maintained in MEM containing 15% FCS, 1% non-essential amino acids and 1 μg/ml bovine insulin (Sigma I-6634). LLC-PK1 cells were grown in M199 (Gibco), 10% FCS, 100 U/ml penicillin, 100 μg/ml streptomycin and 2 mM L-glutamine. For whole cell lysate analysis, 10^5 cells were plated on 6.5 mm diameter, 0.4 μm, polycarbonate Transwell filters from Costar, in 0.25 ml of medium. The basolateral chamber contained 0.75 ml of medium. For immunoprecipitation, 5×10^5 cells were plated onto 24 mm Transwell filters, in 2 ml of medium, with 3 ml of medium in the lower chamber. Cells were used 4-7 days after plating. Tissue culture materials were from Gibco. Porcine brain endothelial cells were isolated and grown by modifications of a previously published procedure (Rubin et al., 1991). Brain capillary fragments were plated on dishes coated with rat tail collagen and human fibronectin. The cultures were fed every other day with growth medium composed of 50% astrocyte-conditioned medium and 50% Dulbecco's Modified Eagle Medium containing 10% plasma-derived serum, 125 μg/ml heparin, antibiotics and glutamine. They were incubated in a humidified atmosphere of 10% CO2 at 37° C. When the endothelial cells were approximately 50% confluent (after 4-6 days in culture), they were trypsinized and plated onto collagen-coated polycarbonate Transwell filters (6.5 mm diameter, 0.4 μm pore size, tissue culture treated, Costar Corp, Cambridge, Mass., U.S.A.) in the same medium (250 μl apically, 750 μl basolaterally). After 2-3 days on filters, the medium was switched to a 1:1 mixture of astrocyte-conditioned medium and a Dulbecco's Modified Eagle Medium-based, chemically defined medium (‘N2’, Rubin et al., 1991; Bottenstein and Sato, 1979). The final concentration of plasma-derived serum was 5%. Human umbilical vein endothelial cells were from Clonetics.
Whole cell lysates were prepared by rapidly replacing the culture medium in 6.5 mm with hot Laemmli sample buffer, followed by heating at 100° C. for 5 minutes. Immunoprecipitations were carried out at 4° C. Confluent monolayers of cells were washed rapidly with ice cold PBS (containing 0.9 mM CaCl2 and 0.5 mM MgCl2) before addition of 0.5 ml of the appropriate buffer. The filters were then gently scraped, and the lysate was removed and centrifuged at 14000× g. The supernatant was precleared with 10% (w/v) protein A-Sepharose in lysis buffer for 30-60 minutes. Appropriate primary antibodies were added to the lysate, and after 2-3 hours the immunecomplex was isolated, using rabbit anti-mouse secondary antibodies (Jackson Immunoresearch Labs Inc., West Grove, Pa.) and protein A-Sepharose. […]

Row | SMILES | mobility of p100/p120 (0.4M mannitol) | time at which increase in p100/p120 mobility is seen (0.8M mannitol) | time for which increase in p100/p120 mobility is maintained (0.8M mannitol) | reversal of increase in p100/p120 mobility after removal (0.8M mannitol 5 minutes, then 30 minutes recovery in iso-osmotic medium) | earliest detection of increase in p100/p120 mobility (hyperosmolar mannitol, separate experiment, not shown) | mobility of p100/p120 (0.3M sorbitol)
1 | OC[C@@H](O)[C@@H](O)[C@H](O)[C@H](O)CO [mannitol] | induces an increase in mobility | ≤ 5 min | 30 min | completely reversed | ≤ 30 s | 
2 | OC[C@@H](O)[C@@H](O)[C@H](O)[C@@H](O)CO [sorbitol] |  |  |  |  |  | increase in mobility
